# Data taken from PubChem BioAssay (Tox21).
# The chains behind the UniProt entries cited, without tags or fusion partners.
# UniProt P11229, whole entry: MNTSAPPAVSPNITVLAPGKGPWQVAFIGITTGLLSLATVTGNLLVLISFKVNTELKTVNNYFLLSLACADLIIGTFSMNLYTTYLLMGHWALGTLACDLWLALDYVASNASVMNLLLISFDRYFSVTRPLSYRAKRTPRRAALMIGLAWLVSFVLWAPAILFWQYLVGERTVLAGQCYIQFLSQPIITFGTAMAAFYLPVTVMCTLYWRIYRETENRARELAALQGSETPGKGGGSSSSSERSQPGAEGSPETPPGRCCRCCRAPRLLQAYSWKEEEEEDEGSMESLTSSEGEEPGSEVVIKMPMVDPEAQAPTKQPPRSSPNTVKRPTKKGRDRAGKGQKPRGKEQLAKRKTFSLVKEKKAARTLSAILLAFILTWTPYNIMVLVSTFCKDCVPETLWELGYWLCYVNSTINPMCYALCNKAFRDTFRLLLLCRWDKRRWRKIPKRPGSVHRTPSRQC
# Values joined by “and” are separate entries in the source; they are usually repeats but may differ in a detail not shown here. Equal entries are not always repeated. Only a part is listed here, and it is no random draw. Results filed as inconclusive are left out. Active and inactive are the calls of the source. Calls come from the whole dose curve.
# Target: Muscarinic acetylcholine receptor M1 (Homo sapiens) (UniProt P11229)
# Test: Cholinergic receptor muscarinic 1 (CHRM1) small molecule antagonists, cell-based qHTS assay (AID 1963588); note: nearly all actives have a fitted effect of over 40% in size
# Conditions: CHRM1-CHO antagonist mode, calcium flux fluorescence; at 61.5 µM (top of the series) unless noted
# Description: National Center for Advancing Translational Sciences [NCATS]
# Division of Preclinical Innovation [DPI]
# U.S. Environmental Protection Agency [EPA]
# National Institutes of Environmental Health Sciences [NIEHS]
# National Toxicology Program [NTP]
# U.S. Food and Drug Administration [FDA]
# The CHRM1 is a muscarinic receptor. This receptor plays a crucial role in learning and memory processes and has long been identified as a promising therapeutic target for the improvement of cognitive decline in Alzheimer's disease (AD). The CHRM1-CHO cell line stably expressing human muscarinic acetylcholine receptor M1 (CHRM1) can be used for screening agonists and antagonists of interactions between CHRM1 and its ligands. The CHRM1-CHO Calcium Flux Assay is a homogeneous fluorescence-based assay for detecting the intracellular calcium level using FDSS kinetic plate reader system.
# Tox21 Assay Protocol Summary:
# CHRM1-CHO cells were dispensed at 1000 cells/3uL/well in 1536-well black-clear bottom plates using a Multidrop Dispenser. After the assay plates were incubated at a 37 C/5% CO2 incubator for 18 h, 3 uL of Dye Loading Buffer was transferred to the assay plate by a Flying Reagent Dispenser. The assay plates were incubated at 37 C for 1h. For antagonist mode, 23 nL of compounds dissolved in DMSO, positive controls or DMSO only was transferred to the assay plate by a pin tool. After 5 min incubation at room temperature, 1.5 uL of acetylcholine at 50nM was added to each well. The fluorescence intensity in the plates was measured using FDSS 7000EX kinetic plate reader for 3 min at 1 sec intervals. Each test compound was measured at 15 concentrations in three independent runs.
# % is set by controls: 0 for no effect and ±100 for the full control effect.
row,SMILES,"activity, negative = inhibition"
1,Cc1c([N+](=O)[O-])cccc1[N+](=O)[O-],inactive: 8.6% and inactive: -1.54%
2,CN(C)CCCl,inactive: -6.02%
3,O=[N+]([O-])[O-].[NH4+],inactive: -9.73% and inactive: 3.94%
4,C/C1=C2N=C(/C=C3N=C(/C(C)=C4\[N-][C@@](C)([C@@H]5N=C1[C@](C)(CCC(=O)NC[C@@H](C)OP(=O)([O-])O[C@H]1[C@@H](O)[C@@H](n6cnc7cc(C)c(C)cc76)O[C@@H]1CO)[C@H]5CC(N)=O)[C@@](C)(CC(N)=O)[C@@H]4CCC(N)=O)[C@@](C)(CC(N)=O)[C@@H]\3CCC(N)=O)C(C)(C)[C@@H]/2CCC(N)=O.[C-]#N.[Co+3],inactive: 30.2% [at 28.3 µM]
5,N=C(N)N[N+](=O)[O-],inactive: 0.292%
6,O=[N+]([O-])c1cccc([N+](=O)[O-])c1,inactive: 35.4%
7,CC(C)N(CCO)C(C)C,inactive: -11.7%
8,CC(C)OP(C)(=O)OC(C)C,inactive: 7.91% and inactive: 23.2%
9,CCOP(=O)(CC)Oc1ccc([N+](=O)[O-])cc1 (stereo unspecified),inactive: 13.1% [at 28.3 µM]
10,COP(C)(=O)OC,inactive: 21.1% and inactive: 69.1%
11,Nc1cc([N+](=O)[O-])cc([N+](=O)[O-])c1O,inactive: -17.3%
12,CCN(CC)CCCl,inactive: 12%
13,CCOP(=O)(CC)OCC,inactive: -19.8%
14,O=[N+]([O-])OCC(CO[N+](=O)[O-])(CO[N+](=O)[O-])CO[N+](=O)[O-],inactive: 8.42%
15,Cc1ccc([N+](=O)[O-])cc1[N+](=O)[O-],inactive: 7.16%
16,Cc1ccc([N+](=O)[O-])c([N+](=O)[O-])c1,inactive: -7.28%
17,CP(=O)(O)OCCC[Si](O)(O)O,inactive: 32.5%
18,N#CBr,inactive: 15.6%
19,[NH4+].[O-][Cl+3]([O-])([O-])[O-],inactive: -6.24% and inactive: 74%
20,Cc1cccc([N+](=O)[O-])c1[N+](=O)[O-],inactive: 17.3% [at 28.3 µM]
21,COc1ccc([N+](=O)[O-])cc1[N+](=O)[O-],inactive: 11.2%
